For the series, the target named is ABCG2 (Homo sapiens, UniProt Q9UNQ0).

Chains of the proteins cited; added tags and fusions are not shown. Lines headed by an entry give the natural chain unless they say otherwise; changes in a name come on top.
UniProt Q9UNQ0: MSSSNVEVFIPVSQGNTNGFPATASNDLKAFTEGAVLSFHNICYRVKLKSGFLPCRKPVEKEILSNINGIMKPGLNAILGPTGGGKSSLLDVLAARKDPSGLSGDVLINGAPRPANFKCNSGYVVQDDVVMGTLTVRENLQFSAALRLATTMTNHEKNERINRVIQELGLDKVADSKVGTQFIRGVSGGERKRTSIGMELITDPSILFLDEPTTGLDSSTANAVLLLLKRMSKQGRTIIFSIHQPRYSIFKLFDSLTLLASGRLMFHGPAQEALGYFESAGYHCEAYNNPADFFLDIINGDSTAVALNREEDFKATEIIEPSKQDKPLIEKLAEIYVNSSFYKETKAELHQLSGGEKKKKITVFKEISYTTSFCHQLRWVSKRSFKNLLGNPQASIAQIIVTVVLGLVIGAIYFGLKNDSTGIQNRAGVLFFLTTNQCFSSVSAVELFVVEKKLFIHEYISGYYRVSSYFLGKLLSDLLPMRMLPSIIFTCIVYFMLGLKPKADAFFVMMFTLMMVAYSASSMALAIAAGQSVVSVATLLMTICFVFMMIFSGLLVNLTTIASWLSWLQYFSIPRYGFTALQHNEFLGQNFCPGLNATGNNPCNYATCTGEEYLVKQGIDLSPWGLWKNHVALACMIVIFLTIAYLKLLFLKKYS

lopinavir/ritonavir: the “Fold (BLI enhancement, S/B ratio over control)” value stood at 3.5 fold and the “fold (BLI enhancement), additional previously known ABCG2 inhibitors” value was found to be 3.5 fold.

These data come from patent publication US20150148256A1, “BIOLUMINESCENCE IMAGING-BASED SCREENING ASSAY AND INHIBITORS OF ABCG2” (THE JOHNS HOPKINS UNIVERSITY, priority 2008, published 2015).
